GALK inhibitor – blocks human galactokinase activity; Purified GALK, Kinase-Glo residual ATP luminescence; 270,000 tested, 0.007% active; P51570; Potency, µM (series often up to 57.5 µM), for the others: at the highest dose activity change, negative = inhibition, usual class: inhibitors; further: potency means the concentration at half of the fitted maximal effect; on the % scale 0 is the no-effect control and ±100 the full control effect
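Quantitative HTS: GALK 5 nM, ATP 35 uM, galactose 100 uM, 1 h room temperature, then luciferase-based ATP detection.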
TrxR1 substrate – is turned over as a substrate by rat TrxR1. purified TrxR1 substrate turnover, NADPH consumption readout. 390,000 tested, 0.01% active. Potency, µM (series often up to 114 µM), for the others: top-dose activity change, negative = substrate turnover; further: potency means the concentration at half of the fitted maximal effect; on the % scale 0 is the no-effect control and ±100 the full control effect; nearly all actives have a fitted effect of over 50% in size
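Rat TrxR1, dispensed at 90 nM, was prereduced with 400 uM NADPH (final) for 5 min at ~22 deg C, then incubated with compound 15 min before 400 uM selenite. A first-read NADPH fluorescence drop versus no-compound background flagged substrates.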
rTrxR1 inhibitor – inhibitors of rat thioredoxin reductase 1; recombinant rTrxR1, NADPH fluorescence consumption, selenite substrate; Potency, µM (titrated, usually from 114 µM), for inactives: at the highest dose activity change, negative = inhibition, actives largely listed as inhibitors; 390,000 tested, 1% active; further: potency means the concentration at half of the fitted maximal effect; on the % scale 0 is the no-effect control and ±100 the full control effect; nearly all actives have a fitted effect of over 65% in size
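Rat TrxR1 (90 nM in the dispensed reagent) was pre-reduced with 400 uM NADPH for 5 min at room temperature, then incubated with compound for 15 min. After 400 uM selenite was added, NADPH fluorescence (Ex 340/Em 450 nm) was followed for 8 min.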
PINK1 modulator – PINK1 expression modulation; 410,000 tested, 0.2% active; PINK1 immunofluorescence, high-content cytometry, 24 h; Potency, µM (titrated, usually from 76.6 µM), for the others: top-dose activation (PINK1 increase), most hits filed as activators; active means well fitted activation curve with a large enough effect; inconclusive means small, poorly fitted or top-dose-only effect; cell line not stated here; further: potency means the concentration at half of the fitted maximal effect; % of control where 0% means no effect; nearly all actives have a fitted effect of over 65% in size
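A stable cell line was treated with compounds at 5 concentrations for 24 hours, with CCCP as control. PINK1 levels and mitochondrial localization were measured by immunofluorescence with mitochondrial, cell and nuclear markers after fixation, read by laser-scanning cytometry.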
miR-21 reporter – raises the signal of a miR-21 reporter | HeLa miR-21 FLuc reporter, luciferase, 48 h | Potency, µM (highest dose often 38.3 µM), inactives show at the highest dose reporter change, positive = more light | 340,000 tested, under 10 active | AID 2288; active = well fitted rising curve with a large enough effect; inconclusive = small, poorly fitted or top-dose-only effect; inactive = no such curve, though single readings can be large or run the other way;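 note: % of control where 0% means no effect; miR-21 action dims this reporter so a rising signal means less miR-21 action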
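HeLa miR-21-FLuc reporter line, endogenous miR-21; 2000 cells/well in DMEM/10% FBS; compound titration up to ~40uM final, 48 h, 37 degree Celsius; luciferase detection reagent, 15 min lysis, CCD luminescence.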
* marks the source's active call; other numbers are inactive results; ? = inconclusive; . = not tested or not shown; [ ] = remark or other dose. This is a sample that favours compounds with a hit; in the whole collection about 1.1% have one here. Unless noted, the call rests on the fitted dose curve; in most records, active means well fitted curve in the direction sought with a large enough effect; inconclusive means small, poorly fitted or top-dose-only effect, or another doubt; inactive means no such curve, though single readings can be large; an effect the other way counts as inactive or inconclusive.

no. | SMILES | GALK inhibitor | TrxR1 substrate | miR-21 reporter
1 | COC(=O)/C=C/c1ccc2c(c1)S(=O)(=O)N(C1CCCC1)[C@H]2CC(=O)OC | . | -3.4% | .
2 | O=C(NCc1ccccn1)C1(C(F)(F)F)C/C(=C\Cc2ccccc2)CCCO1 (stereo not drawn) | . | 13.4% | .
3 | CCOC(=O)CCCCC(=O)c1[nH]c(=O)[nH]c1CSc1nc(C)cc(C)n1 | 1.1% | -2.4%[57.1 µM] | -3.8%
4 | CCOC(=O)CCCCC(=O)c1[nH]c(=O)[nH]c1C[n+]1ccccc1 | 4.5% | . | 1.3%
5 | CCOC(=O)CCCCC(=O)c1[nH]c(=O)[nH]c1CSc1nc2ccccc2[nH]1 | -2.5% | -1.9% | -6.3%
6 | CCOC(=O)CCCCC(=O)c1[nH]c(=O)[nH]c1CSc1nc(C)cc(=O)[nH]1 | -1.2% | 10.8% | -3.7%
7 | CCCCCCCCCCN(CCCCCCCCCC)c1ccc(/C=C/c2ccnc3ccccc23)cc1 | . | 3.7% | .
8 | CCOC(=O)C1=C(COC(=O)/C=C/c2ccccc2)NC(=O)NC1C (stereo not drawn) | . | -1.2% | .
9 | CCOC(=O)C1=C(COC(=O)/C=C/c2ccc(C)o2)NC(=O)NC1C (stereo not drawn) | . | -10.7% | .
10 | CC(=O)c1cccc(OCc2cc(C(=O)N3C[C@@H](C)O[C@@H](C)C3)no2)c1 | 0.0% | 5.9% | -51.1%
11 | CC(=O)c1cccc(OCc2cc(C(=O)N(C)CCC3CCOCC3)no2)c1 | -0.2% | 7.0% | -60.4%
12 | CC(=O)c1ccc(OCc2cc(C(=O)N(C)Cc3ccccn3)no2)cc1 | 8.1% | 2.2% | -50.4%

no. | PINK1 modulator | rTrxR1 inhibitor
1 | . | 24.8%
2 | . | -11.8%
3 | -1.0% | 5.3%[57.1 µM]
4 | . | .
5 | . | 3.16µM*
6 | 0.1%[38.3 µM] | 3.16µM*
7 | 1.6% | 9.2%
8 | -1.2% | 17.2%
9 | 0.5% | 50.1µM*
10 | 0.1% | 10µM*
11 | 1.2% | 8.91µM*
12 | -0.2% | 50.1µM*

(next part)
no. | SMILES | GALK inhibitor | TrxR1 substrate | miR-21 reporter
13 | CC(=O)c1cccc(OCc2cc(C(=O)N3C[C@H]4CC[C@H]3C4)no2)c1 | -6.9% | 1.1% | -60.8%
14 | CCc1cccc(C)c1NC(=O)CN1C(=O)C2(SCC(=O)N2c2cc(C)cc(C)c2)c2ccccc21 (stereo not drawn) | . | -1.9% | 9.0%
15 | COc1ccccc1C(=O)N[C@@H]1c2ccccc2C2(CCN(Cc3c(O)cccc3OC)CC2)[C@H]1O | . | . | .
16 | CC(=O)Nc1ccc2nc(-c3ccc(Br)o3)[nH]c2c1 | -1.1% | -2.2% | -51.2%
17 | O=C(Nc1ccc2nc(-c3ccc(Br)o3)[nH]c2c1)c1cccs1 | -2.1% | -1.4% | -12.1%
18 | COc1cccc(-c2cc(C(=O)N3CCN(C(=O)c4ccco4)CC3)on2)c1 | -3.7% | 4.9% | -7.7%
19 | COc1cccc(NC(=O)CN2CCN(C(=O)c3ccco3)CC2)c1 | 1.1% | 9.3% | -7.0%
20 | Cc1nc2cc(NC(=O)[C@@H]3C[C@@H](Sc4ccccn4)CN3Cc3cccc(F)c3)ccc2s1 | . | . | .
21 | COCCCNC(=O)Cn1nc(N2CCN(c3ccccc3)CC2)ccc1=O | . | -2.9%[57.1 µM] | 4.2%
22 | Cc1ccccc1Cc1nc2cccnc2n1C1CCN(C(=O)CC2NC(=O)c3ccccc32)CC1 (stereo not drawn) | . | . | .
23 | O=C(CC(Sc1ccc(Br)cc1)C(=O)O)c1ccc(F)cc1 (stereo not drawn) | 3.7% | 1.8% | 16.5%
24 | CCC(=O)Nc1ccc(CC)cc1-c1nc2ccccc2n(CC(=O)Nc2cccc(OC)c2)c1=O | . | -4.1% | 8.9%

no. | PINK1 modulator | rTrxR1 inhibitor
13 | -0.9% | 28.5%
14 | -4.0% | 13.1%
15 | 0.3% | .
16 | -0.8% | 11.2µM*
17 | -0.1% | 15.8µM*
18 | 1.5% | 79.4µM*
19 | 0.6% | 70.8µM*
20 | 0.1% | .
21 | -0.8% | 4.0%[57.1 µM]
22 | 0.6% | .
23 | 0.9% | 28.2µM*
24 | 3.0% | 9.2%

Following part:
no. | SMILES | GALK inhibitor | TrxR1 substrate | miR-21 reporter
25 | Cc1ccc(CNC(=O)CSc2c3c(nc4cc(Cl)ccc24)CCCC3)o1 | -5.0% | -3.6% | 9.6%
26 | CCOc1ccc(CNC(=O)CSc2c3c(nc4cc(Cl)ccc24)CCCC3)cc1 | . | -2.1% | 7.8%
27 | CC(=O)N1c2ccc(S(=O)(=O)Nc3ccc(Cl)cc3C)cc2CC1C (stereo not drawn) | . | -2.0%[57.1 µM] | 11.8%
28 | CC(C)CC1C(C#N)=C(N)Oc2n[nH]c(-c3cccs3)c21 (stereo not drawn) | -0.5% | -4.7% | -0.9%
29 | CSCCC1C(C#N)=C(N)Oc2n[nH]c(-c3cccs3)c21 (stereo not drawn) | -0.7% | -0.5% | -3.8%
30 | O=C(Nc1cc(OC(=O)C(F)(F)F)c2nonc2c1OC(=O)C(F)(F)F)C(F)(F)F | . | -18.5% | .
31 | CN1C(=O)c2cccc(NCCCN3C(=O)c4ccccc4C3=O)c2C1=O | -4.3% | 8.5% | -1.3%
32 | CN1C(=O)c2cccc(NCCCCCCN3C(=O)c4ccccc4C3=O)c2C1=O | -2.0% | 16.4%[57.1 µM] | -0.5%
33 | O=C1CC(Nc2ccc(N3CCOCC3)cc2)C(=O)N1c1ccccc1 (stereo not drawn) | -0.2% | 12.8% | -6.7%
34 | Cc1ccc(NC2CC(=O)N(c3ccc(C)cc3)C2=O)cc1 (stereo not drawn) | -1.3% | -2.9% | -17.3%
35 | COc1ccc(NC2CC(=O)N(c3ccccc3)C2=O)cc1 (stereo not drawn) | 1.8% | 10.9%[57.1 µM] | -22.2%
36 | COc1ccccc1N1C(=O)CC(Nc2ccc(N3CCOCC3)cc2)C1=O (stereo not drawn) | 3.0% | 6.0%[57.1 µM] | -6.9%

no. | PINK1 modulator | rTrxR1 inhibitor
25 | 7.2% | 14.1µM*
26 | 6.5% | 4.0%
27 | 1.9% | 5.4%[57.1 µM]
28 | 10.4%[38.3 µM] | -8.5%
29 | -0.1% | 10µM*
30 | 0.8% | ?
31 | 7.08µM* | 41.4%
32 | ? | 27.3%[57.1 µM]
33 | 2.0%[38.3 µM] | ?
34 | 0.4% | 25.1µM*
35 | ? | -42.5%
36 | 0.0% | 7.94µM*

Among those listed so far, these have a thiophene ring, fused or not:
no. | SMILES | GALK inhibitor | TrxR1 substrate | miR-21 reporter
17 | O=C(Nc1ccc2nc(-c3ccc(Br)o3)[nH]c2c1)c1cccs1 | -2.1% | -1.4% | -12.1%
28 | CC(C)CC1C(C#N)=C(N)Oc2n[nH]c(-c3cccs3)c21 (stereo not drawn) | -0.5% | -4.7% | -0.9%
29 | CSCCC1C(C#N)=C(N)Oc2n[nH]c(-c3cccs3)c21 (stereo not drawn) | -0.7% | -0.5% | -3.8%

no. | PINK1 modulator | rTrxR1 inhibitor
17 | -0.1% | 15.8µM*
28 | 10.4%[38.3 µM] | -8.5%
29 | -0.1% | 10µM*

The listing continues.
no. | SMILES | GALK inhibitor | TrxR1 substrate | miR-21 reporter
37 | CCOc1ccccc1N1C(=O)CC(Nc2ccc(N3CCOCC3)cc2)C1=O (stereo not drawn) | -1.3% | 5.9%[57.1 µM] | -7.8%
38 | Cc1cc(C)c(S(=O)(=O)/N=C2\C=CC(=O)C(Cl)=C2)c(C)c1 | 1.2% | 5.4% | -3.0%
39 | Cc1cc(C)c(S(=O)(=O)/N=C2\C=C(NS(=O)(=O)c3ccccc3)C(=O)c3ccccc32)c(C)c1 | 5.4% | -4.4% | 0.6%
40 | O=C(CCCc1nc(-c2ccco2)no1)Nc1ccccc1[N+](=O)[O-] | . | -5.1% | -11.9%
41 | CCN(CC)c1ccc(N=Cc2ccccc2[N+](=O)[O-])cc1 | . | -17.1% | 26.4%
42 | CCN(CC)c1ccc(N=Cc2ccc([N+](=O)[O-])o2)cc1 | 6.6% | 6.1% | 25.3%
43 | CC(=O)N(C)c1ccc(N=Cc2cc3c(cc2[N+](=O)[O-])OCO3)cc1 | . | 5.8%[57.1 µM] | .
44 | CCNc1nc(NCC)nc(N/N=C/c2ccc([N+](=O)[O-])o2)n1 | -0.5% | -17.2% | 8.0%
45 | CSc1nc(SCC(=O)NCc2ccco2)c2c3c(sc2n1)COC(C)(C)C3 | 4.2% | 12.2% | 22.2%
46 | CCN(CC)c1ccc(NC(=O)Cn2cc3c(n2)CCCC3)c(C)c1 | . | 1.2% | 24.3%
47 | c1ccc(-c2ncnc3nc4n(c23)CCC4)cc1 | 0.2% | 12.6% | 3.0%

no. | PINK1 modulator | rTrxR1 inhibitor
37 | 4.2%[38.3 µM] | 7.08µM*
38 | 2.6%[38.3 µM] | 17.8µM*
39 | -0.5% | -14.6%
40 | -0.1% | 1.8%
41 | 6.2% | 70.8µM*
42 | 9.5% | 3.16µM*
43 | 5.6% | 9.3%[57.1 µM]
44 | 9.0% | 44.7µM*
45 | 12.6µM* | ?
46 | 2.1% | 4.1%
47 | 7.94µM* | 13.3%
